Results from patent US8846929B2, “Substituted-quinoxaline-type piperidine compounds and the uses thereof” (priority 2007, dated 2014).

Legend:
[1] = biological target: T1, human opioid receptor-like (ORL-1) (Homo sapiens (Human), UniProt P41146); test: In vitro ORL-1 receptor [35S]GTPγS functional assay; format: biochemical; details: mean ± SEM; for EC50: read-out: GTPγS ORL-1 EC50
delta opioid receptor = delta opioid receptor (Homo sapiens (Human), UniProt P41143); test: In vitro delta-opioid receptor binding assay ([3H]-Naltrindole displacement)
kappa opioid receptor = kappa opioid receptor (Homo sapiens (Human), UniProt P41145); test: In vitro kappa-opioid receptor [35S]GTPγS functional assay; format: biochemical; details: mean ± SEM; for EC50: read-out: GTPγS Opioid Receptor Kappa EC50
μ-opioid receptor = μ-opioid receptor (Homo sapiens (Human), UniProt P35372); test: In vitro mu-opioid receptor [35S]GTPγS functional assay; details: mean ± SEM; for EC50: read-out: GTPγS Opioid Receptor Mu EC50
[2] = biological target: T1, human opioid receptor-like (ORL-1); test: In vitro ORL-1 receptor binding assay ([3H]-nociceptin displacement)

SMILES | GTPγS ORL-1 Emax [1] [%] | EC50 [1] [nM] | GTPγS Opioid Receptor Kappa Emax (kappa opioid receptor) [%] | EC50 (kappa opioid receptor) [nM] | also measured
O=c1c(NCCO)nc2ccccc2n1C1CCN(C2CCCCCCC2)CC1 | 51.7 ± 3.7 | 602 |  |  | Ki (delta opioid receptor): > 100000 nM
O=c1c(N2CCc3ccccc3C2)nc2ccccc2n1C1CCN(C2CCCCCCC2)CC1 | 88.3 ± 2.7 | 474 | 12.67 ± 1.5 | 311 | GTPγS Opioid Receptor Mu Emax (μ-opioid receptor): 1.77 ± 0.4%; EC50 (μ-opioid receptor): 6440 nM
O=C(O)c1cc(CNc2nc3ccccc3n([C@H]3C[C@H]4CC[C@@H](C3)N4C3CCCCCCC3)c2=O)ccc1O | 19 ± 1.5 |  |  |  | Ki [2]: 66.1 nM
O=C1NC(=O)C2(CCN(c3nc4ccccc4n([C@H]4C[C@H]5CC[C@@H](C4)N5C4CCCCCCC4)c3=O)CC2)N1 | 90 | 175 | 0.25 | > 20000 | GTPγS Opioid Receptor Mu Emax (μ-opioid receptor): 21%; EC50 (μ-opioid receptor): > 20000 nM
CC1(N2CCC(n3c(=O)c(C(=O)O)nc4ccccc43)CC2)CCCCCCC1 | 88 ± 5 | 207 |  |  | Ki (delta opioid receptor): > 20000 nM
CC1(C)[C@H]2CC[C@@H](CN3[C@@H]4CC[C@H]3C[C@@H](n3c(=O)c(C(=O)O)nc5ccccc53)C4)[C@@H]1C2 |  |  |  |  | Ki [2]: 398 nM
CCOC(=O)c1nc2ccccc2n([C@H]2C[C@H]3CCC[C@@H](C2)N3C(C)CCC(C)C)c1=O (stereo partly shown) |  | 208 |  | 1510 | EC50 (μ-opioid receptor): 6180 nM
NC(=O)CNc1nc2ccccc2n([C@H]2C[C@H]3CC[C@@H](C2)N3C2CCCCCCC2)c1=O |  | 72.7 |  | 6000 | EC50 (μ-opioid receptor): 3570 nM
O=C(O)C1(N2CCC(n3c(=O)c(N4CC5CNCC5C4)nc4ccccc43)CC2)CCCCCCC1 (stereo not shown) |  |  |  |  | Ki [2]: > 100000 nM
O=C(O)c1nc2ccccc2n([C@H]2C[C@H]3CC[C@@H](C2)N3C2CCCCCCC2)c1=O |  | 184 |  | 1220 | EC50 (μ-opioid receptor): 4070 nM
O=C(N[C@H](C(=O)O)c1ccccc1)c1nc2ccccc2n([C@H]2C[C@H]3CC[C@@H](C2)N3C2CCCCCCC2)c1=O |  | 78.6 |  | 28100 | EC50 (μ-opioid receptor): 20600 nM
CC1(C)CCC(N2[C@@H]3CCC[C@H]2C[C@@H](n2c(=O)c(C(=O)O)nc4ccccc42)C3)CC1 |  |  |  |  | Ki [2]: 828 nM
CN(CC(=O)O)[C@H]1CCN(c2nc3ccccc3n([C@H]3C[C@H]4CCC[C@@H](C3)N4C3CCCCCCC3)c2=O)C1 |  | 219 |  | 7660 | EC50 (μ-opioid receptor): 6980 nM
O=C(NCC(O)CO)c1nc2ccccc2n([C@H]2C[C@H]3CC[C@@H](C2)N3C2CCCCCCC2)c1=O (stereo partly shown) |  | 66.9 |  | 2560 | EC50 (μ-opioid receptor): 3600 nM
CC1(C)CC(N2[C@@H]3CC[C@H]2C[C@@H](n2c(=O)c(C(=O)O)nc4ccccc42)C3)CC(C)(C)C1 |  |  |  |  | Ki [2]: 496 nM
CC1(C)[C@H]2CC[C@@H](CCN3[C@@H]4CC[C@H]3C[C@@H](n3c(=O)c(C(=O)O)nc5ccccc53)C4)[C@@H]1C2 |  | 9.22 |  | > 20000 | EC50 (μ-opioid receptor): 572 nM
CC(C)CCC(C)N1[C@@H]2CCC[C@H]1C[C@@H](n1c(=O)c(C(=O)O)nc3ccccc31)C2 (stereo partly shown) | 90.0 ± 2 |  |  |  | Ki (delta opioid receptor): 1100 nM
CCC(C#CC(C)(C)C)N1[C@@H]2CC[C@H]1C[C@@H](n1c(=O)c(C(=O)O)nc3ccccc31)C2 (stereo partly shown) |  |  |  |  | Ki [2]: 205 nM
CS(=O)(=O)N1CCC(Nc2nc3ccccc3n(C3CCN(C4CCCCCCC4)CC3)c2=O)CC1 | 68 ± 2.5 | 367 |  |  | GTPγS Opioid Receptor Mu Emax (μ-opioid receptor): 6 ± 4%
O=C(O)c1nc2ccccc2n([C@H]2C[C@H]3CCC[C@@H](C2)N3C23CCCC(CCC2)C3)c1=O |  |  |  |  | Ki (delta opioid receptor): 2030 nM
COc1ccc(Nc2nc3ccccc3n(C3CCN(C4CCCCCCC4)CC3)c2=O)cn1 | 43 ± 2.1 | 1080 | 26 ± 7 | 187 | 
CC(C)(Nc1nc2ccccc2n([C@H]2C[C@H]3CC[C@@H](C2)N3C2CCCCCCC2)c1=O)C(=O)O | 31.3 ± 1.8 | 517 | 7.7 ± 1.2 | 5960 | 
O=c1c(NC[C@@H](O)CO)nc2ccccc2n1[C@H]1C[C@H]2CC[C@@H](C1)N2C1CCCCCCC1 |  | 103 |  | 960 | EC50 (μ-opioid receptor): 4500 nM
O=C(O)c1nc2ccccc2n([C@@H]2C[C@H]3CC[C@@H](C2)N3C2CCCCCCC2)c1=O |  |  |  |  | Ki [2]: 299 nM
O=c1c(N2CCNCC2)nc2ccccc2n1C1CCN(C2CCCCCCC2)CC1 | 34 ± 1.5 | 553 | 39.8 ± 4.8 | 2230 | 
CCC(C#Cc1ccccc1)N1[C@@H]2CC[C@H]1C[C@@H](n1c(=O)c(C(=O)O)nc3ccccc31)C2 (stereo partly shown) |  |  |  |  | Ki [2]: > 20000 nM
O=C(O)[C@H](CO)Nc1nc2ccccc2n(C2CCN(C3CCCCCCC3)CC2)c1=O | 48.7 ± 1.9 | 113 | 14 ± 1 | 2540 | 

SMILES | GTPγS ORL-1 Emax [1] [%] | EC50 [1] [nM] | GTPγS Opioid Receptor Kappa Emax (kappa opioid receptor) [%] | EC50 (kappa opioid receptor) [nM] | also measured
C=CCNc1nc2ccccc2n(C2CCN(C3CCCCCCC3)CC2)c1=O | 78 ± 2.3 |  | 15.7 ± 2.6 | 7120 | 
NCCNc1nc2ccccc2n(C2CCN(C3CCCCCCC3)CC2)c1=O | 39 ± 1.5 | 79.1 | 12 ± 0.6 | 1520 | 
O=C(O)c1nc2ccccc2n([C@H]2C[C@H]3CC[C@@H](C2)N3C2C=CCCCC2)c1=O (stereo partly shown) |  |  |  |  | Ki [2]: 611 nM
CCOC(=O)[C@@H]1CN(CCNc2nc3ccccc3n([C@H]3C[C@H]4CCC[C@@H](C3)N4C34CC5CC(CC3C5)C4)c2=O)C[C@H]1C(=O)OCC |  |  |  |  | Ki [2]: 493 nM
CC(=O)N[C@@H]1CCN(c2nc3ccccc3n(C3CCN(C4CCCCCCC4)CC3)c2=O)C1 | 97.7 ± 4.8 |  | 29 ± 5.1 | 1500 | 
O=c1c(NC2CCNCC2)nc2ccccc2n1C1CCN(C2CCCCCCC2)CC1 | 76.3 ± 3.9 | 335 | 39.3 ± 2.0 | 1400 | 
CCOC(=O)c1nc2ccccc2n([C@H]2C[C@H]3CC[C@@H](C2)N3C2CC(C)(C)CC(C)(C)C2)c1=O |  |  |  |  | Ki [2]: 1300 nM
COC(=O)c1ccc2c(c1)CN(c1nc3ccccc3n(C3CCN(C4CCCCCCC4)CC3)c1=O)CC2 | 38 ± 3.8 |  | 20.33 ± 1.9 | 980 | 
O=C(O)c1nc2ccccc2n([C@H]2C[C@H]3CC[C@@H](C2)N3C2CCCCCCCCCC2)c1=O | 101.3 ± 5.7 |  | 11.7 ± 2.3 |  | 
NC(=O)c1nc2ccccc2n([C@H]2C[C@H]3CC[C@@H](C2)N3C2CCCCCCC2)c1=O |  | 61.3 |  | 1130 | EC50 (μ-opioid receptor): 7000 nM
CC(C)(C)C#CCN1[C@@H]2CC[C@H]1C[C@@H](n1c(=O)c(C(=O)O)nc3ccccc31)C2 |  |  |  |  | Ki [2]: 2840 nM
O=C(O)C1CCN(C(=O)c2nc3ccccc3n([C@H]3C[C@H]4CC[C@@H](C3)N4C3CCCCCCC3)c2=O)CC1 |  |  |  |  | Ki [2]: 632 nM
N[C@H]1CCN(c2nc3ccccc3n(C3CCN(C4CCCCCCC4)CC3)c2=O)C1 | 78 ± 10 | 88 | 12.7 ± 4.1 | 285 | 
O=C(O)c1nc2ccccc2n([C@H]2C[C@H]3CCC[C@@H](C2)N3C2/C=C\CCCCC2)c1=O (stereo partly shown) |  | 32 |  | > 20000 | 
CC(C)CC(C)N1[C@@H]2CC[C@H]1C[C@@H](n1c(=O)c(C(=O)O)nc3ccccc31)C2 (stereo partly shown) |  | 925 |  | 1170 | 
CCOC(=O)c1nc2ccccc2n([C@H]2C[C@H]3CCC[C@@H](C2)N3C2CCC(C)(C)CC2)c1=O |  |  |  |  | Ki [2]: 374 nM
O=c1c(N2CCc3ccccc32)nc2ccccc2n1C1CCN(C2CCCCCCC2)CC1 | 119.7 ± 2.7 | 71.2 | 7 ± 1.2 | 8760 | 
CC(C)(C1CCCCCCC1)N1[C@@H]2CCC[C@H]1C[C@@](C)(n1c(=O)c(C(=O)O)nc3ccccc31)C2 |  |  |  |  | Ki [2]: 289 nM
O=c1c(NCC(O)CO)nc2ccccc2n1[C@H]1C[C@H]2CC[C@@H](C1)N2C1CCCCCCC1 (stereo partly shown) |  | 51.7 |  | 4150 | EC50 (μ-opioid receptor): 6200 nM
CCOC(=O)c1nc2ccccc2n([C@H]2C[C@H]3CCC[C@@H](C2)N3C(C)CC(C)C)c1=O (stereo partly shown) |  | 85 |  | 1480 | 
CCOC(=O)C1CN(CCNc2nc3ccccc3n([C@H]3C[C@H]4CC[C@@H](C3)N4C3CCCCCCC3)c2=O)C[C@H]1C(=O)OCC (stereo partly shown) |  | 321 |  | 552 | 
NC1CCN(c2nc3ccccc3n(C3CCN(C4CCCCCCC4)CC3)c2=O)CC1 | 64 ± 3.6 | 440 | 31 ± 1.2 | 690 | 
O=c1c(N2CCC(O)CC2)nc2ccccc2n1C1CCN(C2CCCCCCC2)CC1 | 99 ± 4.6 | 957 | 9 ± 0.6 | 2820 | 
O=C1CNc2ccccc2N1C1CCN(C2CCCCCCC2)CC1 |  | 197 |  | 1940 | EC50 (μ-opioid receptor): 3120 nM
CC(CC(=O)O)Nc1nc2ccccc2n(C2CCN(C3CCCCCCC3)CC2)c1=O (stereo not shown) |  |  |  |  | Ki [2]: 836 nM
O=C(N[C@H](C(=O)O)c1ccccc1)c1nc2ccccc2n([C@H]2C[C@H]3CCC[C@@H](C2)N3C2CCCCCCC2)c1=O |  | 53.1 |  | 208 | EC50 (μ-opioid receptor): 5260 nM
N[C@@H]1CCN(c2nc3ccccc3n(C3CCN(C4CCCCCCC4)CC3)c2=O)C1 | 107 ± 3.1 | 49.1 | 11 ± 2.5 | 276 | GTPγS Opioid Receptor Mu Emax (μ-opioid receptor): 2.33 ± 0.7%; EC50 (μ-opioid receptor): 6120 nM
